{"sequences": {"note": "Amino acid sequences for entries named in this document (tags omitted).", "UniProt Q96RR4, whole entry": "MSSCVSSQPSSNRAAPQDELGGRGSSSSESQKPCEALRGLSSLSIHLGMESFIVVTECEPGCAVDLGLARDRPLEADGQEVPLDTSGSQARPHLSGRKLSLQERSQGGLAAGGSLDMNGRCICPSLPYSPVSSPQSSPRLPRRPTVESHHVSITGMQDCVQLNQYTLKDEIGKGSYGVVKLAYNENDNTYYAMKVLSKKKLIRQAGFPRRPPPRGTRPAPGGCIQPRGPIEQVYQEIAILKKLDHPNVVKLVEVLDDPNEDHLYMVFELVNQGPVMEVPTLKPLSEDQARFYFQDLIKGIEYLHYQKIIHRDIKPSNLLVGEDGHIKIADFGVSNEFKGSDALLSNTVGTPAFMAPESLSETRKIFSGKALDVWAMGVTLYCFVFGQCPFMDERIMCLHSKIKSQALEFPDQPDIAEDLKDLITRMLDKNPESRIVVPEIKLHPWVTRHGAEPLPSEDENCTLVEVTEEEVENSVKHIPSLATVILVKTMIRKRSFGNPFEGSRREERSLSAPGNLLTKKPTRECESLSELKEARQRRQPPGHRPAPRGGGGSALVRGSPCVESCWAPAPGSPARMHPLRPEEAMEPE"}, "source": "patent US20240246969A1", "about": "“HETEROCYCLIC DERIVATIVES AS CAMKK2 INHIBITORS” (Bristol-Myers Squibb Company, priority 2021, published 2024)", "origin": "cited, not measured here", "target": "CaMKK2 (Homo sapiens, UniProt Q96RR4)", "details": "higher affinity for CaMKK2; cited from earlier work", "data": [{"smiles": "O=C(O)c1ccc2c3c1cccc3c(=O)n1c3ccccc3nc21", "note": "[STO-609]", "values": [{"measurement": "affinity for CaMKK2 than CaMKK1", "value": "approximately 5 fold"}]}]}
